From US20230295259A1 (Protagonist Therapeutics, Inc., priority 2020, published 2023)

Biological target: T1, ferroportin (endogenously expressed in T47D cells) (Homo sapiens, UniProt Q9NP59)
T1 construct: is a human breast carcinoma adherent cell line which endogenously expresses ferroportin; host or cells: T47D
T1 sequence (Q9NP59 1-571): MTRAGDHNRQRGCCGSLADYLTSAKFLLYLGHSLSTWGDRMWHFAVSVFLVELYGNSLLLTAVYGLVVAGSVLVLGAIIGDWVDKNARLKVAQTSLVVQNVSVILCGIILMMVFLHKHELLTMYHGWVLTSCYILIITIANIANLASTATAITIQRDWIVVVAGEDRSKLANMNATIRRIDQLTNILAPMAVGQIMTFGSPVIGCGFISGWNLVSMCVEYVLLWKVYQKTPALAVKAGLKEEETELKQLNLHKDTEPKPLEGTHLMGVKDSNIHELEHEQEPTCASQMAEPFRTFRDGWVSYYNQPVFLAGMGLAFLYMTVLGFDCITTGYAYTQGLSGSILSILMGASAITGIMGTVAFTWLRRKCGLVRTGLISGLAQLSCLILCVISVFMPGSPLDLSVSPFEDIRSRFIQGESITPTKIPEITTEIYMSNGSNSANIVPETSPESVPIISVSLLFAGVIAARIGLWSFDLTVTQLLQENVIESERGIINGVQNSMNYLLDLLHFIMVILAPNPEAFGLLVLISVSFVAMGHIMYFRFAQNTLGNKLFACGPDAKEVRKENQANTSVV
Assay: T47D cell-based ferroportin internalization assay in presence of 0.5% mouse serum albumin (AF647-conjugated detection peptide, flow cytometry)
Conditions: read-out: IC50: T47D Internalization MSA

| Substance | IC50 [nM] |
| --- | --- |
| Acrylic_Acid-E-T-H-[Dpa]-P—C—I-[(D)Lys]-[bhPhe]-[Lys(Ahx_Palm)-[(D)Lys]-C—NH2 [Compound 284] | 13.5 |
| Isovaleric Acid-E-T-H-F-P—C—I-[Lys(1PEG2_1PEG2_IsoGlu_C18_Diacid)]-F-E-P—R—S—K—F—C—NH2 [Compound 209] | 222 |
| Isovaleric Acid-E-T-H-F—P—C—I-[Lys(IsoGlu_Palm)]-F-E-P—R-S—K-G-C—NH2 [Compound 225] | 13.9 |
| Isovaleric Acid-E-T-H-[Dpa]-P-[(Me)Cys]-I-[(D)Lys]-[bhPhe]-[Lys(Ahx_Palm)]-[(D)Lys]-[Cys]-NH2 [Compound 81] | 4.98 |
| Isovaleric Acid-E-T-H-[Dpa]-P-[Cys]-I-[(D)Lys]-[(Me)Phe]-[Lys(Ahx_Palm)]-[(D)Lys]-[Cys]-NH2 [Compound 84] | 1.48 |
| Isovaleric Acid-E-T-H-[Dpa]-P-[Cys]-I-[(D)Lys]-[bhPhe]-[(Me)Lys(Ahx_Palm)]-[(D)Lys]-[Cys]-NH2 [Compound 85] | 1.43 |
| Isovaleric Acid-E-T-H-[Dpa]-P-[Cys]-I-[(D)Lys]-[bhPhe]-[Lys(Ahx_Palm)]-[(D)Lys]-[(Me)Cys]-NH2 [Compound 87] | 1.64 |
| Isovaleric Acid-E-T-H-[Dpa]-P-[Cys]-I-[(D)Lys]-[bhPhe]-[Lys(Ahx_Palm)]-[(Me)Lys]-[Cys]-NH2 [Compound 86] | 1.73 |
| Isovaleric Acid-E-T-H-[Dpa]-P-[Cys]-I-[(Me)Lys]-[bhPhe]-[Lys(Ahx_Palm)]-[(D)Lys]-[Cys]-NH2 [Compound 83] | 1.05 |
| Isovaleric Acid-E-T-H-[Dpa]-P-[Cys]-I-[Lys(2Peg4_Palm)]-[bhPhe]-[(D)Lys]-[Cys]-NH2 [Compound 39] | 1.5 |
| Isovaleric Acid-E-T-H-[Dpa]-P-[Cys]-I-[Lys(2Peg11′_IsoGlu_C14_Diacid)]-[bhPhe]-[(D)Lys]-[Cys]-NH2 [Compound 108] | 228 |
| Isovaleric Acid-E-T-H-[Dpa]-P-[Cys]-I-[Lys(2Peg11′_IsoGlu_C18)]-[bhPhe]-[(D)Lys]-[Cys]-NH2 [Compound 112] | 0.92 |
| Isovaleric Acid-E-T-H-[Dpa]-P-[Cys]-[(Me)Ile]-[(D)Lys]-[bhPhe]-[Lys(Ahx_Palm)]-[(D)Lys]-[Cys]-NH2 [Compound 82] | 4.34 |
| Isovaleric Acid-E-T-H-[Dpa]-P—C—I-[(D)Lys(Acrylamide)]-[bhPhe]-[Lys(Ahx_Palm)]-[(D)Lys]-C—NH2 [Compound 283] | 2.2 |
| Isovaleric Acid-E-T-H-[Dpa]-P—C—I-[Lys(1PEG2_1PEG2_1PEG2_C18_Diacid)]-[bhPhe]-[(D)Lys]-C—NH2 [Compound 254] | 23.2 |
| Isovaleric Acid-E-T-H-[Dpa]-P—C—I-[Lys(1PEG2_1PEG2_Ahx_C18_Diacid)]-[bhPhe]-[(D)Lys]-[Pen]-NH2 [Compound 280] | 26.4 |
| Isovaleric Acid-E-T-H-[Dpa]-P—C—I-[Lys(1PEG2_1PEG2_IsoGlu_C18_Diacid)]-[bhPhe]-[(D)Lys]-[Pen]-NH2 [Compound 281] | 86 |
| Isovaleric Acid-E-T-H-[Dpa]-P—C—I-[Lys(1PEG8_IsoGlu_C18_Diacid)]-[bhPhe]-[(D)Lys]-C—NH2 [Compound 238] | 46.1 |
| Isovaleric Acid-E-T-H-[Dpa]-P—C—I-[Lys(PEG4_PEG4_IsoGlu_C18_Diacid)]-[bhF]-[(D)Lys]-C—NH2 [Compound 237] | 98.5 |
| Isovaleric Acid-E-T-H-[Dpa]-P—C—I-[Lys(PEG12_C18 acid)]-[bhPhe]-[(D)Lys]-C—NH2 [Compound 306] | 0.99 |
| Isovaleric Acid-E-T-H-[Dpa]-P—C—I-[Lys(PEG12_C18_Diacid)]-[bhPhe]-[(D)Lys]-Abu-NH2 [Compound 308] | 281 |
| Isovaleric Acid-E-T-H-[Dpa]-P—C—I-[Lys(PEG12_C18_Diacid)]-[bhPhe]-[(D)Lys]-[Pen]-NH2 [Compound 315] | 29 |
